Target: Delta-type opioid receptor (Homo sapiens) (UniProt P41143)
Assay: [35S]GTP-gamma-S, induced maximal stimulation ( E max ) Delta opioid receptor in guinea pig caudate membranes blocked with 20 nM NTI
Settings: Cavia porcellus

The chains behind the UniProt entries cited, without tags or fusion partners.
UniProt P41143, whole entry, looked up: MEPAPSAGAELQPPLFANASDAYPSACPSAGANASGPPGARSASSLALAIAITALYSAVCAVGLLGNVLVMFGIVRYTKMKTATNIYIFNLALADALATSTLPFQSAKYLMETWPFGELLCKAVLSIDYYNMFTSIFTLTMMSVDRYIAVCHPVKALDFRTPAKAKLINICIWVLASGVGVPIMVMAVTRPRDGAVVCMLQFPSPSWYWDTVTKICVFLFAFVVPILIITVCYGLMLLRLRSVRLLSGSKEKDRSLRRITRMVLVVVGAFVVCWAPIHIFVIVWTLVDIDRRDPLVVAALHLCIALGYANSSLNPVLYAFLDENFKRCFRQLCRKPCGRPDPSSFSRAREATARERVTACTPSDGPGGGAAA

SMILES: CN(C(=O)Cc1ccccc1)[C@H]1CC[C@@]2(CCCO2)C[C@@H]1N1CCCC1
- Emax: 178 nM
